Values after ≈ are worked out from the molar mass of the structure shown.
Experiments:
PI4Ka = PI4Ka (Homo sapiens, UniProt P42356); assay: HotSpot lipid kinase inhibition assay; conditions: ATP 10 μM
PI3Ka = PI3Ka (Homo sapiens, UniProt P42336); assay: HotSpot lipid kinase inhibition assay; conditions: ATP 10 μM
PI4Kcb kinase = PI4Kcb kinase (Homo sapiens, UniProt Q9UBF8); assay: Competition binding assay (Kd)
RL = assay: CellTiter Glo cell viability assay; type: cell-based; conditions: read-out: IC50 Values, Lymphoma, 72 h
PC-3 = assay: CellTiter Glo cell viability assay; type: cell-based; conditions: read-out: IC50 Values; Prostate, PC-3, 72 h
MCF-7 = assay: CellTiter Glo cell viability assay; type: cell-based; conditions: read-out: IC50 Values; Breast, MCF-7, 72 h
UACC-62 = assay: CellTiter Glo cell viability assay; type: cell-based; conditions: read-out: IC50 Values; Melanoma, UACC-62, 72 h
DLD-1 = assay: CellTiter Glo cell viability assay; type: cell-based; conditions: read-out: IC50 Values; Colon, DLD-1, 72 h
A549 = assay: CellTiter Glo cell viability assay; type: cell-based; conditions: read-out: IC50 Values; Lung, A549, 72 h
CFPAC-1 = assay: CellTiter Glo cell viability assay; type: cell-based; conditions: read-out: IC50 Values; Pancreatic, CFPAC-1, 72 h
MiaPaca-2 = assay: CellTiter Glo cell viability assay; type: cell-based; conditions: read-out: IC50 Values; Pancreatic, MiaPaca-2, 72 h
IGROV-1 = assay: CellTiter Glo cell viability assay; type: cell-based; conditions: read-out: IC50 Values; Ovarian, IGROV-1, 72 h
COLO-205 = assay: CellTiter Glo cell viability assay; type: cell-based; conditions: read-out: IC50 Values; Colon, COLO-205, 72 h
NCI-H69 = assay: CellTiter Glo cell viability assay; type: cell-based; conditions: read-out: IC50 Values; Lung (Small), NCI-H69, 72 h
A498 = assay: CellTiter Glo cell viability assay; type: cell-based; conditions: read-out: IC50 Values; Kidney, A498, 72 h

The chains behind the UniProt entries cited, without tags or fusion partners.
UniProt P42356, whole entry: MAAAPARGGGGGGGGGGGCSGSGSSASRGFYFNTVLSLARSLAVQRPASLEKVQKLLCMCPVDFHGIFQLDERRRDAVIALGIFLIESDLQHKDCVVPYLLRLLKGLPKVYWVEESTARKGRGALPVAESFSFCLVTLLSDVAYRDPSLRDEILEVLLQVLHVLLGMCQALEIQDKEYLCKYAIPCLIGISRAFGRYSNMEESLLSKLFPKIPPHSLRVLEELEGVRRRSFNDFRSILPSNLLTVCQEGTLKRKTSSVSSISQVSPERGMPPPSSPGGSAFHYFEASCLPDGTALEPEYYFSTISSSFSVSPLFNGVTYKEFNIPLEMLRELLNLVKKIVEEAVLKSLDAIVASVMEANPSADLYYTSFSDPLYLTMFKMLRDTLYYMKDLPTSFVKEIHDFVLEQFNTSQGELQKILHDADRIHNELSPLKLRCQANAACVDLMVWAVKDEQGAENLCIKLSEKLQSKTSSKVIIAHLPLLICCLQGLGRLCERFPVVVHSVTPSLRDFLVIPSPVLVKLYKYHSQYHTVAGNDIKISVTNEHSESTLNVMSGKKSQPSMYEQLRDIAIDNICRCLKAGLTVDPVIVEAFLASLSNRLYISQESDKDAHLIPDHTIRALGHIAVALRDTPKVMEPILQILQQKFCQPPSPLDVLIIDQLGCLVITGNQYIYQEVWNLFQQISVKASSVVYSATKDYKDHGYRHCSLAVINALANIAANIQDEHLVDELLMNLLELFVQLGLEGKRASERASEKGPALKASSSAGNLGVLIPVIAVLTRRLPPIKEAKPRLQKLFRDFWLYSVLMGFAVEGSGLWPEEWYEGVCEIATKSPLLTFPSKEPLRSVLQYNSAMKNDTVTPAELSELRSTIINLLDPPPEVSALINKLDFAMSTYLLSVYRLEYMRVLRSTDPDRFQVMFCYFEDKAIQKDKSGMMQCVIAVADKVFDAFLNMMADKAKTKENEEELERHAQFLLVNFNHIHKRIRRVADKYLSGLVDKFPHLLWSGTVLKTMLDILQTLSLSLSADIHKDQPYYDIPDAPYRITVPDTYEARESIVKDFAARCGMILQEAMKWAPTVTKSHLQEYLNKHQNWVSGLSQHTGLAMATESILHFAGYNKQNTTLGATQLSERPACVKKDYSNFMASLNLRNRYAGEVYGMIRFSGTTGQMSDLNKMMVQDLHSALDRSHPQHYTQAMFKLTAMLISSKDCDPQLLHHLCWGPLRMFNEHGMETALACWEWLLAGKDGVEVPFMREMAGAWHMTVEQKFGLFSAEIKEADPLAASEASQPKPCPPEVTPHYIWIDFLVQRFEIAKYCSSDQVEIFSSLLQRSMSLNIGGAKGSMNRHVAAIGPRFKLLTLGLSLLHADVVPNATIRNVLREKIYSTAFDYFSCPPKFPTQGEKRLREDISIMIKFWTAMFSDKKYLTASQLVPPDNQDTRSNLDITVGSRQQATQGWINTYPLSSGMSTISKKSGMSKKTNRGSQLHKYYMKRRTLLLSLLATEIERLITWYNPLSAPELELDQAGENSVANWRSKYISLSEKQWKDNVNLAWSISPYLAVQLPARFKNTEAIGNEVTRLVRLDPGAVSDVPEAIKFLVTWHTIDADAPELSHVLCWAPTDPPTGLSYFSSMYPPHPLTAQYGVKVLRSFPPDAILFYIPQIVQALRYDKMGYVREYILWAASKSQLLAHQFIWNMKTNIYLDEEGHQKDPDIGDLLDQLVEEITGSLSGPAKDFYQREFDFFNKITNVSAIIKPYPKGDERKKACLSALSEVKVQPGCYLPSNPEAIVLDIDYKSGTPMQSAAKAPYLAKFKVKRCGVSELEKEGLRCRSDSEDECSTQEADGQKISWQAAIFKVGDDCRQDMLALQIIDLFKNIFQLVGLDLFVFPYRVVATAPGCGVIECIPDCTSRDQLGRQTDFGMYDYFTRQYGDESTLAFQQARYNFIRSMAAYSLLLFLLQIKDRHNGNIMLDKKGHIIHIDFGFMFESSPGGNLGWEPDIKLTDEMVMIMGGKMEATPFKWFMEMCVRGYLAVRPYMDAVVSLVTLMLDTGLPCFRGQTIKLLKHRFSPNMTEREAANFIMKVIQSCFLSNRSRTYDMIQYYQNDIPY
UniProt P42336, whole entry: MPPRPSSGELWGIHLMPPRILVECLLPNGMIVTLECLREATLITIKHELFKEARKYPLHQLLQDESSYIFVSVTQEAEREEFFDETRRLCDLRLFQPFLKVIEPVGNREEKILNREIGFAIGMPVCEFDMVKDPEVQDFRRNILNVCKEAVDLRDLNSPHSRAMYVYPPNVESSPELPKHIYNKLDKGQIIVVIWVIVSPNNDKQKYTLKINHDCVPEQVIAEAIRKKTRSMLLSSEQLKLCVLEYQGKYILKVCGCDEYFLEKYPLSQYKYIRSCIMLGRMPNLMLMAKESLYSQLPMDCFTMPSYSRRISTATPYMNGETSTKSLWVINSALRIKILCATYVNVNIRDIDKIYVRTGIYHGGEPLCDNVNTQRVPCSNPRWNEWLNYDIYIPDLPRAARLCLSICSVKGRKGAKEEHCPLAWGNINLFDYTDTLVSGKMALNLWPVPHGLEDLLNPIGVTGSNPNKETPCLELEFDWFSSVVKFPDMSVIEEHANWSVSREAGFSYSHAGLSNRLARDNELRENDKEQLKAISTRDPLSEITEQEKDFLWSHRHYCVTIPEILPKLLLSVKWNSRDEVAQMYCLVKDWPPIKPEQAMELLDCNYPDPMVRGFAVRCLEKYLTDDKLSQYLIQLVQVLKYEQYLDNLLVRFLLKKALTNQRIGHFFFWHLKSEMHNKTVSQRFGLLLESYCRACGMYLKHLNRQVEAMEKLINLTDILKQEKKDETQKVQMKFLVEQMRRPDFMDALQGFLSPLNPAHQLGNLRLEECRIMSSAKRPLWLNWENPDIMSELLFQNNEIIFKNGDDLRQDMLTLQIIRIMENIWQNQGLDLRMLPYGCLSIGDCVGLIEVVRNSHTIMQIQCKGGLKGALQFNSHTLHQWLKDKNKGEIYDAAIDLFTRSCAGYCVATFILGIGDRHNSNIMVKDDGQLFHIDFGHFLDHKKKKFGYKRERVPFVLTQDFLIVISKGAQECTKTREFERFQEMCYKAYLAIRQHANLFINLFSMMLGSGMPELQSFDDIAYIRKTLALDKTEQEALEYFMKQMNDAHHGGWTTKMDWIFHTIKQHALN
UniProt Q9UBF8, whole entry: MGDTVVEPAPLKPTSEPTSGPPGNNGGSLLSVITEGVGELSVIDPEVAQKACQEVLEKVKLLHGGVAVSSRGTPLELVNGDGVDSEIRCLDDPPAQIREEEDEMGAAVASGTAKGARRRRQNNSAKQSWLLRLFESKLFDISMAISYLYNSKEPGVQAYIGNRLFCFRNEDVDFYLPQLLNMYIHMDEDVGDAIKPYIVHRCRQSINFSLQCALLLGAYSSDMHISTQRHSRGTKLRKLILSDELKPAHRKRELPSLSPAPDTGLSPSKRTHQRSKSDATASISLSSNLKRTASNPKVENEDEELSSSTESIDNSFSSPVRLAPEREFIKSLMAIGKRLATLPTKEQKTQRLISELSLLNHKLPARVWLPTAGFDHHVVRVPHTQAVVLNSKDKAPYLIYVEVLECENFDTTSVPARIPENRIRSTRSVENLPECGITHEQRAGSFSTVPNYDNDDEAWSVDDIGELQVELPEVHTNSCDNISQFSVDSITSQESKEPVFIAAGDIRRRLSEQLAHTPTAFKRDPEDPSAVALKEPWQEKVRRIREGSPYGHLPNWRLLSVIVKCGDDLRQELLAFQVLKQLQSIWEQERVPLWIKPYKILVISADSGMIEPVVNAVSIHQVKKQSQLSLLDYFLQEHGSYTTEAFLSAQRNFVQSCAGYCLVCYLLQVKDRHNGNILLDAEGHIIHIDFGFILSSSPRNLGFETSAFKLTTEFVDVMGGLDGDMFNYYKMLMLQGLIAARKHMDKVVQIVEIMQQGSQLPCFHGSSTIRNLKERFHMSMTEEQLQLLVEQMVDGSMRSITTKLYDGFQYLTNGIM
UniProt P27986, whole entry partner: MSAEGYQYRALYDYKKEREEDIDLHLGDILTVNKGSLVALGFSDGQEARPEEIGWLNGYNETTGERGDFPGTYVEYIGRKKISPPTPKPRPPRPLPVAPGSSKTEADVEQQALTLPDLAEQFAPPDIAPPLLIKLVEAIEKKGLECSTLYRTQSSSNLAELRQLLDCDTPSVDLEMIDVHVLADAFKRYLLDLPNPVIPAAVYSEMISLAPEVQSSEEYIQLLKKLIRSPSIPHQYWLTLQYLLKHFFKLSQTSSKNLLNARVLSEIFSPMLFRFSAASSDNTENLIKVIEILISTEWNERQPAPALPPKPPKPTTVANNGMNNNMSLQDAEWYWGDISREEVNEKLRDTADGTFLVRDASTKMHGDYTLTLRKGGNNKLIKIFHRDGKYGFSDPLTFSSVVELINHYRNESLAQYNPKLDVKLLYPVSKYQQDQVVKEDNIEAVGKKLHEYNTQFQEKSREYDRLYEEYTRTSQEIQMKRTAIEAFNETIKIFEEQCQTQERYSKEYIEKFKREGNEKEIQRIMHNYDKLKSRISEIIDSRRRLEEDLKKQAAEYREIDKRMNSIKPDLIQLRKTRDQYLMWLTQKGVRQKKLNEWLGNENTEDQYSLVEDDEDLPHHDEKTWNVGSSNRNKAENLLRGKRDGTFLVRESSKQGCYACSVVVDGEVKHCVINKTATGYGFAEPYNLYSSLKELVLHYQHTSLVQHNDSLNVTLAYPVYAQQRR

Structure (SMILES): COc1cc(O)c2c(=O)c(OC)c(-c3ccc(O)c(O)c3)oc2c1
- Compound IC50 (M), PI4Ka (PI4Ka): 6.1e-06 M
- Compound IC50 (M), PI3Ka (PI3Ka): 5.16e-07 M
- Kd (PI4Kcb kinase): 4.8 ng/mL (≈ 0.0145 µM)
- IC50 (RL): 5.4 µM
- IC50 (PC-3): 11 µM
- IC50 (MCF-7): 7.4 µM
- IC50 (UACC-62): 20 µM
- IC50 (DLD-1): 7.8 µM
- IC50 (A549): 9.5 µM
- IC50 (CFPAC-1): 5.9 µM
- IC50 (MiaPaca-2): 17 µM
- IC50 (IGROV-1): 7.1 µM
- IC50 (COLO-205): 18 µM
- IC50 (NCI-H69): 9.3 µM
- IC50 (A498): 50 µM

Reference: US20190358196A1, “PI 4-KINASE INHIBITOR AS A THERAPEUTIC FOR VIRAL HEPATITIS, CANCER, MALARIA. AUTOIMMUNE DISORDERS AND INFLAMMATION, AND A RADIOSENSITIZER AND IMMUNOSUPPRESSANT” (priority 2016, published 2019)
